The numbers were not newly measured in patent US7906139B2, “Compositions and methods of using lamellar bodies for therapeutic purposes” (Lamellar Therapeutics Limited, priority 2003, dated 2011), which cites them from elsewhere.

This data set has as its target T1, fibrin gels from normal human fibrinogen (Homo sapiens, UniProt P02671+P02675+P02679).
T1 sequence (P02671 20-644 isoform P02671-2 limits assumed): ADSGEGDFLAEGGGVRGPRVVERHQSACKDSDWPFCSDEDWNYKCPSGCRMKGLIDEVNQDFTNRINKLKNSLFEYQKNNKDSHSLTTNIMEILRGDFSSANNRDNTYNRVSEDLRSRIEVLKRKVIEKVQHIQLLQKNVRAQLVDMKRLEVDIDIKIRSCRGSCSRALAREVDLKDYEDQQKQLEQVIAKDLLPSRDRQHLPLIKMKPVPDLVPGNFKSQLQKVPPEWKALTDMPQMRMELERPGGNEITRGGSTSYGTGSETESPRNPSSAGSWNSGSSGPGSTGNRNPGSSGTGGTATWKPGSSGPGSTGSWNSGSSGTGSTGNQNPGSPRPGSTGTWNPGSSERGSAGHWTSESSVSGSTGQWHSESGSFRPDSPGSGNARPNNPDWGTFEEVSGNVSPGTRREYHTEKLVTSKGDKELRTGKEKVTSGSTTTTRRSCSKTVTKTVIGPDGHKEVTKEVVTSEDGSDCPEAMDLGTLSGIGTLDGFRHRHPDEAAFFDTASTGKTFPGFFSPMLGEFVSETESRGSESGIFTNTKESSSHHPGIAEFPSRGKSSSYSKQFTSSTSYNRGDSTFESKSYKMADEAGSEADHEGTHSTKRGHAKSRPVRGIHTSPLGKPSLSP
T1 sequence (P02675 45-491 limits assumed): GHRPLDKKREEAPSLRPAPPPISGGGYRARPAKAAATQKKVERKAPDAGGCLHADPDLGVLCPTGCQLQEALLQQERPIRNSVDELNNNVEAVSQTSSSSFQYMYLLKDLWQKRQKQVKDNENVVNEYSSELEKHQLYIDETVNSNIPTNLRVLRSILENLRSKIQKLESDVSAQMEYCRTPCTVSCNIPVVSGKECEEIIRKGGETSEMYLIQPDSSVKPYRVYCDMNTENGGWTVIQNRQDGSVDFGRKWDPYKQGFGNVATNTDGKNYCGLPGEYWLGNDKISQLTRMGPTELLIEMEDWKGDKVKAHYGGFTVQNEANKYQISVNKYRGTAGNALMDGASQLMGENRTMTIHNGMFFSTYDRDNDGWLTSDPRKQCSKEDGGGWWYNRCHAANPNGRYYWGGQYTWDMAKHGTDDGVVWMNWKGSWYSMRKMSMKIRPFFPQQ
T1 sequence (P02679 27-437 isoform P02679-2 limits assumed): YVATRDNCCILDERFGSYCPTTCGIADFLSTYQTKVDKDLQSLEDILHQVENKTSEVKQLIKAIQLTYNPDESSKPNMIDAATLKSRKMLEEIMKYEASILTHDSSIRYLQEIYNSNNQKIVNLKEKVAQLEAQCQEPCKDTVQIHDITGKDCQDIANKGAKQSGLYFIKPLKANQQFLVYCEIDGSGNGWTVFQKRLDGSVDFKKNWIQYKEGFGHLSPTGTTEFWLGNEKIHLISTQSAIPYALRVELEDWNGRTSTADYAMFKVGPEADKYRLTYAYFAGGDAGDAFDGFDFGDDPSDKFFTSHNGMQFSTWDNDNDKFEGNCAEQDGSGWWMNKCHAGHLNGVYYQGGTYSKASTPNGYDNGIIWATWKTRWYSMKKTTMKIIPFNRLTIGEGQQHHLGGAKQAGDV

Turning to “Albumin: protein known to produce more porous fibrin gel structures when present in the gel-forming system”, the “effect on gel structure when present in the gel-forming system” value is “more porous structures”.
